Values of other authors, collected in article PMC9504419, “Multipotent Cholinesterase Inhibitors for the Treatment of Alzheimer’s Disease: Synthesis, Biological Analysis and Molecular Docking Study of Benzimidazole-Based Thiazole Derivatives” (Molecules, 2022).
pIC50: −log10 of the molar value.

By UniProt entry, the sequences of proteins in these tests, tags left out. Residues count along the entry.
UniProt P22303, 32-614: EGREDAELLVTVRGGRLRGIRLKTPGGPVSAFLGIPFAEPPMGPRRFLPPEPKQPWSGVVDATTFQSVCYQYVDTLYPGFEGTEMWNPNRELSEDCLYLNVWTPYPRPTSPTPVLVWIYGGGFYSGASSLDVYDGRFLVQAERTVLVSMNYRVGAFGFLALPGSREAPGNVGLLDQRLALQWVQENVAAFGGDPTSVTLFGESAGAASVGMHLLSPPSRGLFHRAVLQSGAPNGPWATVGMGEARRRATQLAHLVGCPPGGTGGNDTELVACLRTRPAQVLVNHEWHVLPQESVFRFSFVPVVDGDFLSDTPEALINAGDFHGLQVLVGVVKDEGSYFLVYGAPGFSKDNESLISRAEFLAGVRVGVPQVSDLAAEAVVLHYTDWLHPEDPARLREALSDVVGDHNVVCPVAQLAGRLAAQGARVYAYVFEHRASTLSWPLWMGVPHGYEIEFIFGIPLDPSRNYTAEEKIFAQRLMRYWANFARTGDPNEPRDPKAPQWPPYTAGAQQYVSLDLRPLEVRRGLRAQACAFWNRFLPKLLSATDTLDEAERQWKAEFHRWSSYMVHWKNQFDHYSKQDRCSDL

Molecular target: AChE (Homo sapiens, UniProt P22303)
Set-up: method as in PMID 31699396
Conditions: read-out: inhibitory efficacy (IC50) against the AChE activity; under ideal test circumstances; cited from earlier work

In the case of `O=C(CCC1CCN(Cc2ccccc2)CC1)c1ccc2c(c1)NCCCC2` [TAK-147], the pIC50 is listed as 7.92.
